# Assay results as given in patent US10640830B2, “Drug selection for non-small cell lung cancer therapy” (NESTEC S.A., priority 2013, dated 2020).
# System: NSCLC
# Experiment: EGFR inhibitor treatment of NSCLC patient (Patient #10)
# Assay type: in vivo, human
smiles,measurement,value
COc1cc2ncnc(Nc3ccc(F)c(Cl)c3)c2cc1OCCCN1CCOCC1 [gefitinib],response to treatment course,partial response
same,time to relapse (PFS),5.1 months
